Test results taken from US10881656B2, “HIF inhibitors and use thereof” (The General Hospital Corporation, priority 2008, dated 2021).

Experiments:
[1] = test system: HIF-2a; assay: Western blot for HIF-2a protein expression; assay type: cell-based, human; details: 786-O cells
[2] = target: T1, IRP1 (Homo sapiens, UniProt P21399); assay: HIF-2a activity (EGLN3 qRT-PCR) in IRP knock down lines; details: 786-O IRP knock down lines
T1 sequence (P21399 1-889): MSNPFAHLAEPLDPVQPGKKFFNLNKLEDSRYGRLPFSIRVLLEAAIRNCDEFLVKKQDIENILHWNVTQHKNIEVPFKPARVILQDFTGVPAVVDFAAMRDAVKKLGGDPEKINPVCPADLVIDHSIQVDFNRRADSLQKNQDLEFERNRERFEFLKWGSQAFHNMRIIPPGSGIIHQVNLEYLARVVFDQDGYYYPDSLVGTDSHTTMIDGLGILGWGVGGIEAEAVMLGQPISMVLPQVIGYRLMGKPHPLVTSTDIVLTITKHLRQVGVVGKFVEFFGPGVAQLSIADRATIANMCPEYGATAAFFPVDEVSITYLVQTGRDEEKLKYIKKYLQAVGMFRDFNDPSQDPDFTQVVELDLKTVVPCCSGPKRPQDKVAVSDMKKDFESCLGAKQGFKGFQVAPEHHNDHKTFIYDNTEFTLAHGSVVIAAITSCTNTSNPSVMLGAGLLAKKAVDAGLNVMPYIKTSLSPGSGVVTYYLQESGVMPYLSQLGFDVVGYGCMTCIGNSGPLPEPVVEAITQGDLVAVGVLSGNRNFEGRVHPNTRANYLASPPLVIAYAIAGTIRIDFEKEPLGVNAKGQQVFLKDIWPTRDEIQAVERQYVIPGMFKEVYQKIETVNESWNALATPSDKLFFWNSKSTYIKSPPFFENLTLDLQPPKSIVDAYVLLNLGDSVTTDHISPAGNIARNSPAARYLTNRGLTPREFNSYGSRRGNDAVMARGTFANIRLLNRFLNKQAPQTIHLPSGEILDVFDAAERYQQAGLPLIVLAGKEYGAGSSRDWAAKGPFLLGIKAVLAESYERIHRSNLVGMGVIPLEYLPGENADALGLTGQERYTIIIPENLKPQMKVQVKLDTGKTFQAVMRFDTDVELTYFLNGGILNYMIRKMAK

CCCCC/C=C/C=C1/C(=O)C=C[C@@H]1C/C=C\CCCC(=O)O [PGJ2, 15-deoxy-Δ^12,14-prostaglandin J2]
HIF-2a protein expression [1]: decreased | effect on HIF-2a activity when IRP1 is knocked down [2]: down regulation of IRP1 abolished the ability of PGJ2 to repress HIF2a activity
